DT40 TDP1 CPT – growth inhibition of DT40 Tdp1-/-;hTDP1 cells with camptothecin (screen for TDP1 inhibitors); chicken DT40 Tdp1-/-;hTDP1 cells + 20 nM CPT, ATP luminescence, 48 h; Potency, µM (top dose mostly 46.2 µM), for the others: at the top dose activity change, negative = growth inhibition, most hits filed as inhibitors; 12% of 420,000 active; also: potency is read from the fitted curve at half-maximal effect; % is scaled to controls: 0 for no effect and ±100 for the full control effect; nearly all actives have a fitted effect of over 55% in size
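Chicken DT40 Tdp1-/- cells stably complemented with human TDP1 were seeded at 400 cells/well in medium containing 20 nM camptothecin, exposed to pin-transferred compounds, and grown at 37 °C for at least 48 hr. Viability was read as ATP luminescence.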
TDP1 cell noCPT – qHTS for Inhibitors of human tyrosyl-DNA phosphodiesterase 1 (TDP1): qHTS in cells in absence of CPT. DT40 Tdp1-/- hTDP1 cells, no CPT, ATP luminescence, 48 h. Potency, µM (series often up to 46.2 µM), inactives show at the highest dose activity change, negative = growth inhibition, actives largely listed as inhibitors. 15% of 420,000 active. AID 686978, 2013; also: potency is read from the fitted curve at half-maximal effect; % is scaled to controls: 0 for no effect and ±100 for the full control effect; nearly all actives have a fitted effect of over 55% in size
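Growth kinetics read by CellTiter-Glo luminescence after ≥48 hr at 37 °C. Cells: DT40 Tdp1-/- stably carrying human TDP1, 400 per well, compound exposure in the absence of CPT (DMSO vehicle).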
TDP1 inh – blocks human tyrosyl-DNA phosphodiesterase 1; Q9NUW8; Potency, µM (series often up to 130 µM), without a hit: at the highest dose activity change, negative = inhibition, hits mostly inhibitors; recombinant TDP1, AlphaScreen DNA substrate cleavage; AID 485290; 0.28% of 350,000 active; also: potency is read from the fitted curve at half-maximal effect; % is scaled to controls: 0 for no effect and ±100 for the full control effect; nearly all actives have a fitted effect of over 40% in size
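E. coli-derived human Tdp1, 1 nM final. Cpd preinc 15 min RT; substrate 15 nM final, 5 min RT; AS bead mix 10 ug/ml final, 10 min RT. Signal loss = tyrosine-FITC cleavage. No-enzyme wells = max signal.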
miR-21 reporter – miR-21 reporter, rising signal | Potency, µM (highest dose often 38.3 µM), for inactives: at the highest dose reporter change, positive = more light | 340,000 tested, under 10 active | HeLa miR-21 FLuc reporter, luciferase, 48 h; active = well fitted rising curve with a large enough effect; inconclusive = small, poorly fitted or top-dose-only effect; inactive = no such curve, though single readings can be large or run the other way;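 note: % of control where 0% means no effect; miR-21 action dims this reporter so a rising signal means less miR-21 action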
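HeLa cells stably expressing CMV-driven firefly luciferase with a downstream miR-21 binding sequence, endogenously expressing miR-21, were treated with titrations (up to about 40uM final) for 48 hours at 37 degree Celsius. Luciferase luminescence was read after lysis.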
uPA surface inh – blocks generation of uPA at the cell surface; 0.31% of 330,000 active; cell surface uPA generation assay, qHTS; Potency, µM (top dose mostly 38.3 µM), for the others: at the highest dose activity change, negative = inhibition, usual class: inhibitors; active = well fitted inhibition curve with a large enough effect; inconclusive = small, poorly fitted or top-dose-only effect; inactive = no such curve, though single readings can be large or run the other way; tested in mouse RAW 264.7 cells; also: potency is read from the fitted curve at half-maximal effect; % is scaled to controls: 0 for no effect and ±100 for the full control effect; nearly all actives have a fitted effect of over 55% in size
* marks the source's active call; other numbers are inactive results; u = inconclusive; x = not tested or not shown; [ ] = another dose, or the depositor's remark. Sampled rows, rich in hits. Any-hit rate of the full collection: about 16%. Unless noted, calls follow the shape of the dose curve; as a rule, active = well fitted curve in the direction sought with a large enough effect; inconclusive = small, poorly fitted or top-dose-only effect, or another doubt; inactive = no such curve, though single readings can be large; an effect the other way counts as inactive or inconclusive.

Letter code: A = DT40 TDP1 CPT; B = TDP1 cell noCPT; C = TDP1 inh; D = miR-21 reporter; E = uPA surface inh
(1) O=[N+]([O-])c1ccc(N/N=C\c2cccn2-c2ccccc2)nc1
  A: 12µM*; B: u; C: 13%; D: -12%; E: 13%

(2) O=[N+]([O-])c1ccc(NN=Cc2ccccc2)nc1
  A: -4%; B: -2%; C: x; D: x; E: 0%

(3) CCN(CC)S(=O)(=O)c1ccc(N/N=C/c2ccc(O)cc2O)nc1
  A: 4.6µM*; B: 5.8µM*; C: -4%; D: 6%; E: -12%

(4) O=[N+]([O-])c1ccc(NN=Cc2ccccc2O)nc1
  A: 5.8µM*; B: 5.8µM*; C: x; D: x; E: -10%

(5) Cc1nn(C)c(C(=O)NNC(=S)NCc2ccco2)c1Br
  A: -6%; B: u; C: x; D: 1%; E: u

(6) Cc1ccccc1-n1c(C)cc(/C=N/Nc2ccc([N+](=O)[O-])cn2)c1C
  A: 26µM*; B: u; C: 7%; D: -62%; E: 3%

(7) Cc1cc(/C=N/Nc2ccc([N+](=O)[O-])cn2)c(C)n1-c1ccc(C(=O)O)cc1
  A: -9%; B: -28%; C: x; D: -21%; E: 7%

(8) CCN(CC)c1ccc(C=NNc2ccc([N+](=O)[O-])cn2)cc1
  A: 21µM*; B: u; C: x; D: x; E: 0%

(9) O=[N+]([O-])c1ccc(O)c(/C=N/Nc2ccccn2)c1
  A: 1.3µM*; B: 1.5µM*; C: 8%; D: 24%; E: -12%

(10) O=[N+]([O-])c1ccc(O)c(/C=N/Nc2ncnc3c2cnn3-c2ccccc2)c1
  A: 3.7µM*; B: 3.7µM*; C: x; D: 0%; E: -24%

(11) COc1ccc(C=NNc2ccc([N+](=O)[O-])cn2)cc1
  A: -10%; B: -8%; C: x; D: x; E: 0%

(12) C/C(=N\OCC(=O)OC(C)C(=O)Nc1ccc(C)c(S(=O)(=O)N2CCOCC2)c1)c1ccc2c(c1)OCO2 (centres undefined)
  A: -14%; B: 3%; C: x; D: x; E: -16%

(13) c1ccc2c(-c3cncc4ccccc34)cncc2c1
  A: u; B: u; C: x; D: x; E: 7%

(14) O=[N+]([O-])c1ccc(O)c(/C=N/Nc2nc3ccccc3[nH]2)c1
  A: 4.1µM*; B: 2.1µM*; C: 10%; D: -3%; E: -13%

(15) COc1ccc(O)c(/C=N/Nc2nc3ccccc3[nH]2)c1
  A: 18%; B: 1%; C: 8%; D: -23%; E: 2%

(16) COc1ccc2nc(NC(=O)c3nc(S(=O)(=O)Cc4ccccc4)ncc3Cl)sc2c1
  A: 1µM*; B: 1.3µM*; C: -9%; D: u; E: x

(17) COc1ccc2nc(NC(=O)c3nc(SCc4ccccc4F)ncc3Cl)sc2c1
  A: 9%; B: -1%; C: -7%; D: 3%; E: x

(18) COc1ccc2nc(NC(=O)c3nc(S(=O)(=O)Cc4ccccc4F)ncc3Cl)sc2c1
  A: 0.92µM*; B: 1.5µM*; C: 0%; D: u; E: x

(19) CCCN1CCC(NC(=O)Cc2ccccc2C)CC1
  A: -3%; B: 10%; C: 1%; D: -4%; E: 9%

(20) CCNC(=O)c1ccc(-n2nc(C(F)(F)F)c3c2CCCC3)cc1
  A: -29%; B: u; C: 3%; D: 2%; E: x

(21) O=C(c1cc(COc2ccc(F)cc2Cl)on1)N1CCC(OCc2cccnc2)CC1
  A: 16µM*; B: 9.2µM*; C: 3%; D: 10%; E: -4%

(22) COc1cc(Cl)ccc1OCc1cc(C(=O)N2CCCC(OC)C2)no1 (centres undefined)
  A: -3%; B: u; C: 5%; D: -55%; E: -2%

(23) O=C(c1cc(COc2ccc(F)cc2Cl)on1)N1CCCCC1c1cccnc1 (centres undefined)
  A: 16µM*; B: 13µM*; C: 3%; D: -24%; E: 3%

(24) COc1cc(Cl)ccc1OCc1cc(C(=O)N2CCCCC2c2cccnc2)no1 (centres undefined)
  A: 5.8µM*; B: u; C: 2%; D: -8%; E: -4%

(25) Cc1nn(C)c2c1c(C(F)(F)F)cc(=O)n2Cc1cccc(Br)c1
  A: 2%; B: -1%; C: 7%; D: -4%; E: x

(26) Cc1cc2ccccc2n1CCNC(=O)c1cccc(Br)c1
  A: 21µM*; B: 12µM*; C: -4%[12.3 µM]; D: 9%; E: x

(27) Cc1cc2ccccc2n1CCNC(=O)C1CC1
  A: 15µM*; B: -21%; C: x; D: 1%; E: -24%

(28) Cc1cc2ccccc2n1CCNC(=O)c1cccc(Cl)c1
  A: 15µM*; B: 7.3µM*; C: 0%; D: 3%; E: x

(29) Cc1cc2ccccc2n1CCNC(=O)c1cccs1
  A: -25%; B: u; C: 6%; D: 17%; E: -18%

(30) COc1cccc(NC(=O)Nc2nnc([C@H]3C[C@H](O)[C@@H](CO)O3)s2)c1
  A: u; B: -3%; C: x; D: x; E: x

Pulled one by one from above:
Letter code: A = DT40 TDP1 CPT; B = TDP1 cell noCPT; C = TDP1 inh; D = miR-21 reporter; E = uPA surface inh
(8) CCN(CC)c1ccc(C=NNc2ccc([N+](=O)[O-])cn2)cc1
  A: 21µM*; B: u; C: x; D: x; E: 0%

(12) C/C(=N\OCC(=O)OC(C)C(=O)Nc1ccc(C)c(S(=O)(=O)N2CCOCC2)c1)c1ccc2c(c1)OCO2 (centres undefined)
  A: -14%; B: 3%; C: x; D: x; E: -16%

(21) O=C(c1cc(COc2ccc(F)cc2Cl)on1)N1CCC(OCc2cccnc2)CC1
  A: 16µM*; B: 9.2µM*; C: 3%; D: 10%; E: -4%

(23) O=C(c1cc(COc2ccc(F)cc2Cl)on1)N1CCCCC1c1cccnc1 (centres undefined)
  A: 16µM*; B: 13µM*; C: 3%; D: -24%; E: 3%

Remaining list, next part
Letter code: A = DT40 TDP1 CPT; B = TDP1 cell noCPT; C = TDP1 inh; D = miR-21 reporter; E = uPA surface inh
(31) O=C1CC(N2CCN(c3ccccc3Cl)CC2)C(=O)N1c1cccc(F)c1 (centres undefined)
  A: -20%; B: 0%; C: 3%; D: -7%; E: 6%

(32) CCN1C(=O)CC(NCc2ccc(S(N)(=O)=O)cc2)C1=O (centres undefined)
  A: 0%; B: 16%; C: 4%; D: 0%; E: 0%

(33) O=C(CN1C(=O)c2ccccc2S1(=O)=O)Nc1cccc(S(=O)(=O)N2CCCCC2)c1
  A: u; B: 18µM*; C: 3%; D: x; E: -2%

(34) O=C(Cn1nnc(-c2ccccc2)n1)Nc1cccc(S(=O)(=O)N2CCCC2)c1
  A: 18µM*; B: 21µM*; C: -2%; D: x; E: -1%

(35) N#Cc1ccccc1OCc1cccc(S(=O)(=O)N2CCOCC2)c1
  A: -11%; B: -4%; C: 0%; D: x; E: 10%

(36) O=S(=O)(c1cccc(Cn2nnc(-c3ccccc3)n2)c1)N1CCOCC1
  A: 23µM*; B: 21µM*; C: -1%; D: x; E: -33%

(37) CN(CC(=O)Nc1cccc(S(=O)(=O)N2CCCCC2)c1)Cc1ccc(F)cc1
  A: u; B: u; C: 0%[56.1 µM]; D: x; E: u

(38) CN(CC(=O)Nc1cccc(F)c1)CC(=O)Nc1cccc(S(=O)(=O)N2CCCCCC2)c1
  A: 16µM*; B: 16µM*; C: 4%; D: 27%; E: -12%

(39) Cc1noc(C)c1C(=O)N1CCN(c2cccc(Cl)c2)CC1
  A: 9%; B: -29%; C: 3%; D: -1%; E: -1%

(40) Brc1cccc(Cn2c(-c3cncs3)nc3ccccc32)c1
  A: u; B: -29%; C: -5%; D: 0%; E: -2%

(41) C[C@@H](O)[C@H]1O[C@]2(C)CCC[C@H]1O2
  A: -28%; B: -23%; C: 0%; D: x; E: -9%

(42) CN(CC(=O)Nc1cccc(F)c1)CC(=O)Nc1cccc(S(=O)(=O)N2CCCCC2)c1
  A: u; B: 21µM*; C: -2%; D: x; E: -5%

(43) CC1CCc2ccccc2N1CC(=O)Nc1cccc(S(=O)(=O)N2CCCC2)c1 (centres undefined)
  A: 16µM*; B: 18µM*; C: 3%; D: x; E: -10%

(44) CCOc1ccc(-c2nnc(-c3ccncc3)o2)cc1
  A: 21µM*; B: u; C: 4%; D: -24%; E: -1%

(45) CCCCOc1ccc(-c2nnc(-c3ccncc3)o2)cc1
  A: u; B: 21µM*; C: 5%; D: -30%; E: 4%

(46) Nc1c(NC2CCCCC2)c2ccccc2oc1=O
  A: u; B: 16µM*; C: -5%; D: -14%; E: x

(47) Nc1c(NCCN2CCOCC2)c2ccccc2oc1=O
  A: 5.2µM*; B: 9.2µM*; C: 4%; D: -1%; E: -1%

(48) CCN(CC1CCCN(CCc2cccc(OC)c2)C1)C(=O)c1ccoc1 (centres undefined)
  A: 10%; B: -2%; C: 3%[56.1 µM]; D: -2%; E: -3%

(49) COc1ccccc1C(=O)NC(C)c1cccc2ccccc12 (centres undefined)
  A: 8.2µM*; B: 3.7µM*; C: 5%[0.0935 µM]; D: 6%; E: 0%

(50) COc1cc2cc(C(=O)NC(C)c3cccc4ccccc34)c(N)nc2cc1OC (centres undefined)
  A: 26µM*; B: 16µM*; C: x; D: x; E: x

Screening results as filed in PubChem BioAssay.
